Target: T1, Peroxisome proliferator-activated receptor delta (Homo sapiens) (UniProt Q03181)
T1 sequence (whole entry): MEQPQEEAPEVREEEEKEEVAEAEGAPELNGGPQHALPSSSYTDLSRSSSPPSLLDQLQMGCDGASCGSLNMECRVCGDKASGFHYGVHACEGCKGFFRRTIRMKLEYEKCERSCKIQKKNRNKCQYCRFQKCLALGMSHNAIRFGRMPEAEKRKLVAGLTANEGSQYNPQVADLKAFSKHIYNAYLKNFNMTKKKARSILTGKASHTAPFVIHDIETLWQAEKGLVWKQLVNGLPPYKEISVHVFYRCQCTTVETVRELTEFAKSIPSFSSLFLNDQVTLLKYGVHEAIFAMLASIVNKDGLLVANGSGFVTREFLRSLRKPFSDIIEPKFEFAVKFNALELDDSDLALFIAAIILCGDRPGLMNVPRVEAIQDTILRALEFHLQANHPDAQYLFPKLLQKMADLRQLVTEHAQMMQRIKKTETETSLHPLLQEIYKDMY
Conditions: CV-1, 30 uM

Row | SMILES | Emax [%]
1 | CC(C)=CCC/C(C)=C/Cc1c(O)cc(/C=C/c2ccsc2)cc1O | 24
2 | CC(C)=CCC/C(C)=C/Cc1c(O)cc(/C=C/c2ccc(C#N)cc2)cc1O | 15
3 | CC(C)=CCC/C(C)=C/Cc1c(O)cc(/C=C/c2ccc(C=O)cc2)cc1O | 7
4 | CC(C)=CCC/C(C)=C/Cc1c(O)cc(/C=C/c2ccccc2)cc1O [AMORPHASTILBOL] | 21
5 | COc1ccc(/C=C/c2cc(O)c(C/C=C(\C)CCC=C(C)C)c(O)c2)cc1 | 20
